These results are taken from PubChem BioAssay AID912 (National Center for Advancing Translational Sciences (NCATS), 2007).

Only a part is listed here, and it is no random draw. Results filed as inconclusive are left out. Calls of active or inactive are those of the source. Calls follow the shape of the full dose curve.
% is scaled to controls: 0 for no effect and ±100 for the full control effect.

The nature of the assay: qHTS Assay for Anthrax Lethal Toxin Internalization. Also: nearly all actives have a fitted effect of over 50% in size. The note with it: Cells, FRET ratio (460/530); at 40 µM (top of the series). For orientation: qHTS replaces the single test concentration by a dilution series.
Turning to `CN(CCCl)CCCl`, the activity change, negative = inhibition is inactive: -4.76%. As for `O=[N+]([O-])C(Cl)(Cl)Cl`, the figure is inactive: 3.07%.
